# Ab-91 heavy chain CDR variants: yeast mating affinities

Reference: Engelhart et al. 2022, doi:10.1038/s41597-022-01779-4. File: FLAb, binding data.

Target peptide (SARS-CoV-2 spike, HR2 region): PDVDLGDISGINAS

Ab-91 is the parent antibody, in scFv form: VL, then a (GGGGS)3 linker, then VH. The light chain is unchanged in all variants.
VL: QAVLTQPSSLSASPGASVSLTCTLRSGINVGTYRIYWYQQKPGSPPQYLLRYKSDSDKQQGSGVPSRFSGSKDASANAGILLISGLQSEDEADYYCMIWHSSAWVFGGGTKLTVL
VH: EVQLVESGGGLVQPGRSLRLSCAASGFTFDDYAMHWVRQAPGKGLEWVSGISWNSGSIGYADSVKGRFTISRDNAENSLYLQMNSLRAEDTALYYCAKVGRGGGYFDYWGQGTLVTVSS

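The starting antibody came from a phage panning campaign against this peptide. AAYL51 was designed without a model: most single CDR substitutions and a random sample of double and triple ones. AlphaSeq pools MATa yeast showing the antibodies with MATalpha yeast showing the peptide. Mating (16 h, 30 °C) was followed by selection of diploids and sequencing of their barcodes. Scores were corrected for input abundance and mapped to Kd with protein pairs of known affinity run in the same pool. Each pool was mated in three replicate cultures.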

The parent's heavy chain CDRs are GFTFDDYAMH, GISWNSGSIGYADSVK, VGRGGGYFDY; each variant's own CDRs replace them letter for letter. The read-out is the apparent dissociation constant on a log10 scale (nM): the lower, the stronger. Where no diploid with the target was found in that replicate, the entry reads "nd": below detection, most likely a poor binder, though not proof of it. Background: pairings of library AAYL51 with three empty control strains gave a value in 21% of cases (median 4.54, 5th percentile 3.26). Values in that range, when seen in few replicates, are hard to tell from nonspecific mating. Also given: how often the same scFv was detected with the empty control strains. For reference, the parent read 1.86 as the reference entry and 0.88 as a member of this library.

GFTFDDYAFH / GISWNSGSIGYADSVK / RGRGGHYFDY: 2.20, 2.13, 1.85 (controls 6 of 9).
GITFDDYAMH / GISWNWGSIGLADSVK / VGRGGGYFDY: 3.47, 5.06, 4.44 (controls 2 of 9).
GFTFTDYAMH / GISWNSGSGGYADSVK / IGRGGGYFDY: 2.71, 3.40, 2.70 (controls 1 of 9).
GFTFDDYAMH / GISWNEGSEGYDDSVK / VGRGGGYFDY: 3.69, 5.58, nd (controls 5 of 9).
GFTFDDYAMH / GISWNSGDIGYADSVK / VGRGGEMFDY: nd, 4.21, nd (controls 0 of 9).
GFTFDKYAMH / GISWNSGSSGYADSVK / VGRGTGYFDY: nd, nd, nd (controls 3 of 9).
GYTFDDYAMH / GISWNSGSIGYADSVK / VCRGGGYFDS: 4.86, 6.05, nd (controls 3 of 9).
GFTFDKYAMH / GISWNSGSMGYADKVK / VGRGGGYFDY: 0.72, 0.72, 0.01 (controls 2 of 9).
GFTFDDYAMH / GISWQSGSIGYADPVK / VNRGGGYFDY: 4.10, 4.08, nd (controls 3 of 9).
GFHFDDYAMH / GISWNSNSIGYADSVK / VGGGGGYFDY: 1.36, 1.24, 1.39 (controls 3 of 9).
GFTFDDYAMN / GISWNSGSIGYAQSVK / VGREGGYFDY: 4.04, nd, nd (controls 3 of 9).
GFTFDDYAMH / GISWQSGSINWADSVK / VGRGGGYFDY: nd, nd, nd (controls 0 of 9).
GETFDDYAMR / GISWNSGSIGYADSVK / VGYGGGYFDY: 4.23, 5.27, nd (controls 4 of 9).
GFWFDDYAMH / GISWNSGSQGYADSVM / VGRGGGYFDY: nd, nd, nd (controls 1 of 9).
GFTFDDYAMH / GIYWNSGSLGYADYVK / VGRGGGYFDY: 5.51, 4.26, 4.13 (controls 1 of 9).
GFSFDDYAMH / GISWNDGSIGYADSVK / VGRGGGYSDY: 4.28, 4.42, 5.58 (controls 7 of 9).
GFTKDDYAMH / GISWNSGSMGYAVSVK / VGRGGGYFDY: 4.31, nd, nd (controls 1 of 9).
GFTMDDYAMH / GPSWNSGSIEYADSVK / VGRGGGYFDY: nd, nd, nd (controls 1 of 9).
GFTFDDYAMH / GISWNSGSIGYADVMK / VGPGGGYFDY: 3.34, 2.88, 4.86 (controls 2 of 9).
WFTFDDYAMH / GIAWQSGSIGYADSVK / VGRGGGYFDY: 5.51, 4.15, 5.84 (controls 5 of 9).
GFTFDDYAMH / GIRWNSGVFGYADSVK / VGRGGGYFDY: nd, nd, nd (controls 1 of 9).
NFTFDDYAMH / GIEWNSGSIGYADSVK / VGRGGGYHDY: 5.83, nd, nd (controls 2 of 9).
GFTPDDYAMH / GISWNSGSIGYCDSVK / VGRGGHYFDY: nd, 3.85, 4.34 (controls 2 of 9).
GFTMDDYAMH / GILWNSGSIGYADSVK / VCRGGGYFDY: 5.03, nd, nd (controls 2 of 9).
GFTFDDYAMH / GISWNSGSIGWADSVK / PGCGGGYFDY: nd, nd, nd (controls 0 of 9).
GFTFDDYAMH / GISWNSGSPGFADSVK / VGRGGGYFDY: nd, 3.02, nd (controls 0 of 9).
GCTFDDYAMF / GISWNSGSIGYADSVK / VGRGGGYFDY: nd, nd, nd (controls 0 of 9).
GFTFDDYAMH / GISWNCGSIGYADSVK / QGRGGGYFDY: 4.32, nd, nd (controls 1 of 9).
YFTFDDYGMH / GISWNSGSIGYADSVK / VGRGGGYYDY: nd, nd, nd (controls 0 of 9).
GFTFDDYASN / GISWNSGSIGYADSVK / VGRGGGYVDY: nd, nd, nd (controls 0 of 9).
GFTFDDYAMH / VISWNSGEIGYADSHK / VGRGGGYFDY: nd, nd, nd (controls 0 of 9).
GFTFDDYAMH / GISWNSCVIGYADEVK / VGRGGGYFDY: nd, 5.44, nd (controls 1 of 9).
GFTFDDYAMH / GISMNSGSIGYADSVK / WGRGGGYFKY: 4.32, nd, nd (controls 2 of 9).
GGTFDDYAMH / GISWNSGSIGYADSVK / VGRGGGNFWY: nd, 3.08, nd (controls 2 of 9).
GFTFDDYQMH / GISWRSGQIGYADSVK / VGRGGGYFDY: nd, nd, 5.03 (controls 1 of 9).
GFTFDAVAMH / GISWNSGMIGYADSVK / VGRGGGYFDY: 1.15, 1.22, 0.89 (controls 6 of 9).
QFTFDDYAMH / GISWNSGSIGYADSIK / VGRFGGYFDY: 2.96, 3.44, 4.99 (controls 5 of 9).
GFMFDDYAMH / GISWNSGSIGYADKVC / VGRGGGYFDY: 2.32, 2.37, 1.99 (controls 1 of 9).
GFTFDDYAMH / GISWNSGSHGYADSVK / VGRGGGYEDY: nd, nd, nd (controls 1 of 9).
GFTFYDYAMH / GISWNSGSIGYADDVK / VGRGGGYFDV: 0.68, 0.77, 0.31 (controls 2 of 9).
GFTFQDYAMH / GWSWNSFSIGYADSVK / VGRGGGYFDY: nd, nd, nd (controls 0 of 9).
GFTFDDYAMH / GISWNSGSIKYAEKVK / VGRGGGYFDY: nd, nd, nd (controls 1 of 9).
GQTFDDYAMH / GISWNSGSIGYADMVK / VGRGGGYFDQ: 3.93, 4.19, 3.42 (controls 8 of 9).
CFTFDDYAMH / GISWNSGSIGYQDSVK / VHRGGGYFDY: nd, nd, 3.91 (controls 0 of 9).
GLTFDDYAMH / GISWNSGDIGYADSVK / VGRGGGYFMY: 3.52, 3.89, nd (controls 0 of 9).
GFTFDDYAMH / GISWNSGSIGYADRVK / VGRHGGWFDY: 3.33, 1.98, 2.79 (controls 0 of 9).
GFTFDDYAMH / GISWNSHMIGYADSVK / VGRGGGYFDY: 1.48, 2.19, 2.44 (controls 0 of 9).
GTTFDDYAMH / GFSENSGSIGYADSVK / VGRGGGYFDY: 4.96, nd, 5.02 (controls 3 of 9).
GFTFDDYAMH / GIEWNSGSIGYADSVK / VGRGGGCFDY: nd, 5.56, 3.44 (controls 2 of 9).

Excerpt, the final 5 entries:

| CDR-H1 | CDR-H2 | CDR-H3 | replicates, log10 nM | empty controls |
|---|---|---|---|---|
| GLTFDDYAMH | GISWNSGDIGYADSVK | VGRGGGYFMY | 3.52, 3.89, nd | 0/9 |
| GFTFDDYAMH | GISWNSGSIGYADRVK | VGRHGGWFDY | 3.33, 1.98, 2.79 | 0/9 |
| GFTFDDYAMH | GISWNSHMIGYADSVK | VGRGGGYFDY | 1.48, 2.19, 2.44 | 0/9 |
| GTTFDDYAMH | GFSENSGSIGYADSVK | VGRGGGYFDY | 4.96, nd, 5.02 | 3/9 |
| GFTFDDYAMH | GIEWNSGSIGYADSVK | VGRGGGCFDY | nd, 5.56, 3.44 | 2/9 |